In patent US20210120813A1, “INHIBITORS OF THE SHIKIMATE PATHWAY” (PEPTICOM LTD., priority 2018, published 2021):

How the values were obtained:
[1] = tested on: EPSPS (TIPS mutant) from common wheat; test: E. coli AB2829 growth rescue screen with EPSPS TIPS mutant (OD600); format: cell-based, Triticum Aestivum
[2] = tested on: Lolium multiflorum (LOLMU); test: Weed efficacy on petri dishes, germination and visual notation, LOLMU; format: in vivo; settings: 10 DAT; for LOLMU Visual notation Mean: scale 0 = as control to 100
[3] = tested on: Chenopodium album (CHEAL); test: Weed efficacy on petri dishes, germination and visual notation, CHEAL; format: in vivo; settings: 10 DAT; for CHEAL Visual notation Mean: scale 0 = as control to 100

COc1ccc([N+](=O)[O-])cc1[N+](=O)[O-]
ability of rescued AB2829 bacteria cells (EPSPS TIPS) to grow on M9 minimal media ([1]; 20 mM, 40 h, 0.1% rhamnose): completely abolish
% bacterial growth relative to rescue with mutant EPSPS at 20 mM, 40 h post application ([1]; 40 h post application, OD600, EPSPS null = 0%, Rescue = 100%): −256%
LOLMU Germination (%) Mean ([2]; 50 mg a.i./L): 95.6%
LOLMU Visual notation Mean ([2]; 50 mg a.i./L): 3.8
LOLMU Germination (%) Mean ([2]; 500 mg a.i./L): 85.9%
LOLMU Visual notation Mean ([2]; 500 mg a.i./L): 76.3
LOLMU Germination (%) Mean ([2]; 5000 mg a.i./L): 0.0%
LOLMU Visual notation Mean ([2]; 5000 mg a.i./L): 100.0
CHEAL Germination (%) Mean ([3]; 50 mg a.i./L): 73.8%
CHEAL Visual notation Mean ([3]; 50 mg a.i./L): 41.7
CHEAL Germination (%) Mean ([3]; 500 mg a.i./L): 63.6%
CHEAL Visual notation Mean ([3]; 500 mg a.i./L): 53.1
CHEAL Germination (%) Mean ([3]; 5000 mg a.i./L): 18.9%
CHEAL Visual notation Mean ([3]; 5000 mg a.i./L): 94.3

Only a part of the results on these compounds is given; other tests are left out.
